The results in this text go back to patent US5814612A, “Retinol derivatives and uses thereof” (priority 1992, dated 1998).

For this test, the system named is thymocytes. Description: Proliferation of anti-CD3 activated thymocytes in serum-free ITLB medium. It is filed as cell-based, BALB/c mouse. The procedure:
FIG. 14A: Purified BALB/c thymocytes were activated with immobilized anti-CD3e antibody and cultivated for four days in ITLB medium with or without retinol (3×10^-6 M), 14HRR (6×10^-7 M) (fresh 14HRR was added every 12 hours), human serum (3%) or FCS (10%) at the cellular densities shown. Proliferation was assayed by tritiated thymidine incorporation into cellular DNA. The SDs were below 20%.
FIG. 14B: BALB/c thymocytes (10^6 /ml) were added to microtiter plates coated with titrated amounts of anti-CD3e antibody with […] retinol or without, as indicated. Proliferation was measured in hexaduplicate wells on day 3 by ^3 H thymidine incorporation assay.
Purified thymocytes (5×10^5 cells/well) were stimulated by TCR crosslinking with immobilized anti-CD3e antibody (FIG. 15A) or 0.4 μg/ml Con A (FIG. 15B) in serum-free ITLB medium. The indicated amounts of retinoids were added either once at the beginning of the experiment (marked as "1×") or every 12 hours thereafter (marked as "6×"). DNA synthesis was measured after 72 hours by tritiated thymidine uptake as described.
Purified thymocytes (10^5 cells/well) were activated with anti-CD3 antibody in ITLB medium with or without retinol (3×10^-6 M), 14HRR (6×10^-7, added every 12 hours or human serum (3%)). DNA synthesis was measured daily by a 4 hour pulse of tritiated thymidine. SDs were ≤12%.
Thymocytes (5×10^4 /well) were activated by immobilized anti-CD3 mAb in medium ITLB. […]
Thymuses of 3 to 6-week-old BALB/c mice were teased in serum-free RPMI medium supplemented with 1% BSA, 10^-6 M linoleic acid and antibiotics. […] Cell viability was evaluated by trypan blue dye exclusion. To determine the extent of depletion of accessory cells, samples were stained with FITC-conjugated anti-Fc receptor antibody and analyzed by flow cytometry on a FACScan instrument (Becton Dickinson). No FcR-bearing cells were detected by this procedure. […]

Entries after “also recorded” stand apart in the source; their conditions may differ.

As for IL-2: hrIL-2, the “ability of cytokine to replace retinol” value (absence of retinol) was “None of the four interleukins, IL-1, IL-2, IL-4 or IL-6, was capable of overcoming the requirement for retinal; also recorded: none of the interleukins tested (IL-1, IL-2, IL-4 and IL-6) nor TNF-alpha are substitutes for retinol”. Further, the “growth-stimulating effect, anti-CD3, no Retinol” value (no retinol, 3 days, IL-1 10, IL-2 2, IL-4 5, IL-6 5, IFN-gamma 40, TNF-alpha 12, IL-2 + IL-4 2/5 U/ml) amounted to 458 ± 156 CPM. Moreover, the “growth-stimulating effect, anti-CD3, 10^-6 M Retinol” value (with 10^-6 M retinol (head), 3 days, IL-1 10, IL-2 2, IL-4 5, IL-6 5, IFN-gamma 40, TNF-alpha 12, IL-2 + IL-4 2/5 U/ml, Retinol: stimulating agent none) is on record as 77,343 ± 11,739 CPM.
